Measurements: patent US20230235082A1, “SITE-SPECIFIC ANTIBODY CONJUGATES AND THE METHODS FOR PREPARATION OF THE SAME” (GLYCO-THERAPY BIOTECHNOLOGY CO., LTD., priority 2020, published 2023)

Tests used:
MDA-MB-231 (Her2−) cells = experiment: In vitro cytotoxicity, CellTiter-Glo cell viability, MDA-MB-231 as Her2-negative line; assay type: cell-based
Method: (§1) SK-Br-3 (Her2+) and MDA-MB-231 (Her2−) cells were cultured in McCoy's 5A medium (Gibco) and DMEM (Gibco) supplemented with 10% FBS (Invitrogen) respectively. The cells were plated in 96-well plates with 5000 cells per well and were incubated for 24 hours at 37° C. and 5% CO2. After remove of the culture medium, the antibody samples (trastuzumab, trastuzumab-G2F-FAzP4MMAE and trastuzumab-G2F-FAzDBCO-MMAE) were added to culturing medium to a series of final concentrations (100 nM, 10 nM, 1 nM, 0.5 nM, 0.1 nM, 0.05 nM, 0.01 nM, 0.001 nM and 0 nM) and added to the plates respectively. The cells were incubated for 72 h at 37° C. and 5% CO2 and subjected to a CellTiter-Glo® Luminescent Cell Viability Assay (Promega) to measure the cell viability.
(§2) SK-Br-3 (Her2+) and BT-474(Her2+) were cultured in RPMI 1640 medium supplemented with 10% FBS (Gibco). MDA-MB-231 (Her2−) cells were cultured in DMEM (Gibco) supplemented with 10% FBS (Gibco). The cells were plated in 96-well plates with 5000 cells per well and were incubated for 24 hours at 37° C. and 5% CO2. […] The cells were incubated for 72 h at 37° C. and 5% CO2 and subjected to a CellTiter-Glo® Luminescent Cell Viability Assay (Promega) to measure the cell viability.
(§3) SK-Br-3 (Her2+), NCI-N87(Her2+) and BT-474(Her2+) were cultured in RPMI 1640 medium supplemented with 10% FBS (Gibco). MDA-MB-231 (Her2−) cells were cultured in DMEM (Gibco) supplemented with 10% FBS (Gibco). The cells were plated in 96-well plates with 5000 cells per well and were incubated for 24 hours at 37° C. and 5% CO2. After removing of the culture medium, the sample was added to the culture medium to a series of final concentrations (100 nM, 10 nM, 1 nM, 0.5 nM, 0.1 nM, 0.05 nM, 0.01 nM, 0.001 nM and 0 nM) and added to the plates respectively.
(§4) NCI-N87 (Her2+) cells were cultured in RPMI 1640 medium supplemented with 10% FBS (Gibco). MDA-MB-231 (Her2−) cells were cultured DMEM (Gibco) supplemented with 10% FBS (Gibco). The cells were plated in 96-well plates with 3000 cells per well and incubated for 24 hours at 37° C. and 5% CO2. […] The cells were incubated for 6 days at 37° C. and 5% CO2 and subjected to a CellTiter-Glo® Luminescent Cell Viability Assay (Promega) to measure the cell viability.

BT-474 (Her2+) cells = experiment: In vitro cytotoxicity, CellTiter-Glo cell viability, BT-474; assay type: cell-based; settings: 72 h, 0.001-100 nM
Method: as §2, §3

SK-Br-3 (Her2+) cells = experiment: In vitro cytotoxicity, CellTiter-Glo cell viability, SK-Br-3; assay type: cell-based; settings: 72 h, 0.001-100 nM
Method: as §1, §2
SK-Br-3 (Her2+), NCI-N87(Her2+) and BT-474(Her2+) were cultured in RPMI 1640 medium supplemented with 10% FBS (Gibco). […]

NCI-N87 (Her2+) cells = experiment: In vitro cytotoxicity, CellTiter-Glo cell viability, NCI-N87; assay type: cell-based, human; settings: 6 days, 0.00001-100 nM
Method: as §3, §4

## trastuzumab-(Galβ1,4)GlcNAc-FAmAzDBCO-MMAE
MDA-MB-231 (Her2−) cells; 72 h, 0.001-100 nM
  killing cells (cell viability): but not
BT-474 (Her2+) cells
  killing cells (cell viability): high potent of killing cells
SK-Br-3 (Her2+) cells
  killing cells (cell viability): high potent of killing cells

## trastuzumab-(Galβ1,4)GlcNAc-FAmSucMMAE: "trastuzumab-(Galβ1,4)GlcNAc ... was incubated with GDP-Fuc derivatives" (GDP-FAmSucMMAE) "and Hp1,3-FucT"; "found as 148634 Da, DAR2"
MDA-MB-231 (Her2−) cells; 6 days, 0.00001-100 nM
  killing cells (cell viability): but not
NCI-N87 (Her2+) cells
  killing cells (cell viability): high potent of killing cells

## trastuzumab-G2F-FAmAzDBCO-MMAF
MDA-MB-231 (Her2−) cells; 72 h, 0.001-100 nM
  killing cells (cell viability): but not
BT-474 (Her2+) cells
  killing cells (cell viability): high potent of killing cells
SK-Br-3 (Her2+) cells
  killing cells (cell viability): high potent of killing cells

## trastuzumab-G2F-FAmAzP4DXd
MDA-MB-231 (Her2−) cells; 6 days, 0.00001-100 nM
  killing cells (cell viability): but not
NCI-N87 (Her2+) cells
  killing cells (cell viability): high potent of killing cells

## trastuzumab-G2F-FAmDM4
MDA-MB-231 (Her2−) cells; 6 days, 0.00001-100 nM
  killing cells (cell viability): but not
NCI-N87 (Her2+) cells
  killing cells (cell viability): high potent of killing cells
